From article PMC4571291

What was measured:
[1] = target: actin (UniProt P68135); test: ITC; first site (KD1); conditions: domain or fragment
[2] = target: actin (UniProt P68135); test: ITC; second site (KD2); conditions: domain or fragment

Tmod1_(ABS2)Mut (from UniProt P28289-1 164-351)
Kd [1]: 22 nM | Kd [2]: 1600 nM
